Source: patent US11696956B2, “Bicyclic peptide ligands specific for EphA2” (BicycleTx Limited, priority 2017, dated 2023)

Amino acid sequences for entries named in this document (tags omitted). Residues count along the entry.
UniProt P29317, 24-537 limits assumed: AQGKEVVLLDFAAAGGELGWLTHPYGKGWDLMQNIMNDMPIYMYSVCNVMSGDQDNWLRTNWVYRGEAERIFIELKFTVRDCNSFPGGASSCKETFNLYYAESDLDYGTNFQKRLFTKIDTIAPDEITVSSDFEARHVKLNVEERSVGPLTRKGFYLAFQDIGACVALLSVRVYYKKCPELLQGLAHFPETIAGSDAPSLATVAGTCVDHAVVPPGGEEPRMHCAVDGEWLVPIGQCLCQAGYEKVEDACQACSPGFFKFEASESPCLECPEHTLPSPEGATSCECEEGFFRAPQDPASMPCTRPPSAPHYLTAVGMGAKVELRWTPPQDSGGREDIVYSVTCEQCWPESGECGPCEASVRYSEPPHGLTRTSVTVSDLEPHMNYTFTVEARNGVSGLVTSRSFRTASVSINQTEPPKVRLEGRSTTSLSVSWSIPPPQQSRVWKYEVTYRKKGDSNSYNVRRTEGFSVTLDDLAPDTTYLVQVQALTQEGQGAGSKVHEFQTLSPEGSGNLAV
UniProt D3ZBN3, 26-205: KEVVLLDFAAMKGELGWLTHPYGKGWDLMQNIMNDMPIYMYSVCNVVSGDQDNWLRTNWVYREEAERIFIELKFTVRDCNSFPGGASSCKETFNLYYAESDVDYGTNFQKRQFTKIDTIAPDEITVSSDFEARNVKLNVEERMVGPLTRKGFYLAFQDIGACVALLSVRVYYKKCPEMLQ
UniProt D3ZBN3, 26-200: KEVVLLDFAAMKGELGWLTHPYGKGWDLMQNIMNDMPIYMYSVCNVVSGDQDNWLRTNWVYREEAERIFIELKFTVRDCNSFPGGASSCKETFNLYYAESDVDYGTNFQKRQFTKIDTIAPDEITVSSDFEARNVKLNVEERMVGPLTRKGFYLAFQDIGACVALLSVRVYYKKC
UniProt Q03145, 26-538 limits assumed: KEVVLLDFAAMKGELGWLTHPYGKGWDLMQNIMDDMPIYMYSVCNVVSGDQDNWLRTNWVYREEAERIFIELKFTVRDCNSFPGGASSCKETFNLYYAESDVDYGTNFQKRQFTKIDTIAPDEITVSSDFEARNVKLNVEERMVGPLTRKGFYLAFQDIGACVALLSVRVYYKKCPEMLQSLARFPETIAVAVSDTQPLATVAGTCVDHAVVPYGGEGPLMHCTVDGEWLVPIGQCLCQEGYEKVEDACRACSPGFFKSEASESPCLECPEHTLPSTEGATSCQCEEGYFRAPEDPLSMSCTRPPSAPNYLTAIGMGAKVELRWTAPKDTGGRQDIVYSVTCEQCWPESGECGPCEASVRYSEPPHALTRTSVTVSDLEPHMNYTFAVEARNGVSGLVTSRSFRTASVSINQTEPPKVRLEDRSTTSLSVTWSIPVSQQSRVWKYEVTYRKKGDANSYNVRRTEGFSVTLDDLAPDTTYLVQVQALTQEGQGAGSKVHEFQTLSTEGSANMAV
UniProt P54764, 20-547 limits assumed: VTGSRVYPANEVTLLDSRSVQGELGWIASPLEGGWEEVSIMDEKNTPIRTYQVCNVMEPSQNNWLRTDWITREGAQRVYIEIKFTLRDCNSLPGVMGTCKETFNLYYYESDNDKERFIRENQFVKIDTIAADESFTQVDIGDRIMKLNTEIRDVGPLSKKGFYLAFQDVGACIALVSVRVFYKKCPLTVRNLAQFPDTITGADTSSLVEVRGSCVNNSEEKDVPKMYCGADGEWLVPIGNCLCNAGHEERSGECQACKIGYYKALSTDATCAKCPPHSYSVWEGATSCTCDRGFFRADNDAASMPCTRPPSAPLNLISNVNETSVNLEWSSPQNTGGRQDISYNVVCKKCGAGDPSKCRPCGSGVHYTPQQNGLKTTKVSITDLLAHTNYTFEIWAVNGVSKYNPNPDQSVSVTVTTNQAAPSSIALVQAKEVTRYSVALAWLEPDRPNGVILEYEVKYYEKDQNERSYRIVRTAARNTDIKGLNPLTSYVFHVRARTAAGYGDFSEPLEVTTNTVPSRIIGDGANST
UniProt P28907, whole entry: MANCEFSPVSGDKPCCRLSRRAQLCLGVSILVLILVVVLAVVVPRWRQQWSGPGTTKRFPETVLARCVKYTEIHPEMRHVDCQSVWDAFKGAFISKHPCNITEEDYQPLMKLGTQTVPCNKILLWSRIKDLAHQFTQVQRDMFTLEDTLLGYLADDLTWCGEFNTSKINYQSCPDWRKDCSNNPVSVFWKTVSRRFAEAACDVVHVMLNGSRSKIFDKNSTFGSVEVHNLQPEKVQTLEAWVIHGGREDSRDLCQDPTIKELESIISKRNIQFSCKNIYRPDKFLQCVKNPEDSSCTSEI

How the values were obtained:
[1] = molecular target: T1, Human EphA2 (Homo sapiens, UniProt P29317); assay: FP competition binding (Study 2, alternative protocol); conditions: read-out: Human Ki; Table 10, bicyclic peptides
T1 construct: EphA2 (Ecto); Human; C-terminal; R&D systems; 3035-A2; polyHis (C); purchased R&D systems 3035-A2

[2] = molecular target: T2, rat EphA2 (Rattus norvegicus, UniProt D3ZBN3); assay: as above; parameters: Rat; C-; In-house; N/A; polyHis (C); made in house; conditions: read-out: Rat Ki; Table 10, bicyclic peptides
[3] = molecular target: T3, Mouse EphA2 (Mus musculus, UniProt Q03145); assay: as above; parameters: EphA2 (Ecto); Mouse; C-; Sino; 50586-M08H; polyHis (C); purchased Sino Biological 50586-M08H; conditions: read-out: Mouse Ki; Table 10, bicyclic peptides
[4] = molecular target: T1, Human EphA2; assay: SPR measurements; assay type: binding; conditions: read-out: Human KD
Description: Non-Fc fusion proteins were biotinylated with EZ-Link™ Sulfo-NHS-LC-Biotin for 1 hour in 4 mM sodium acetate, 100 mM NaCl, pH 5.4 with a 3× molar excess of biotin over protein. The degree of labelling was determined using a Fluorescence Biotin Quantification Kit (Thermo) after dialysis of the reaction mixture into PBS. For analysis of peptide binding, a Biacore T200 instrument was used utilising a XanTec CMD500D chip. Streptavidin was immobilized on the chip using standard amine-coupling chemistry at 25° C. with HBS—N (10 mM HEPES, 0.15 M NaCl, pH 7.4) as the running buffer. […] Residual activated groups were blocked with a 7 min injection of 1 M ethanolamine (pH 8.5):HBS—N(1:1). Buffer was changed to PBS/0.05% Tween 20 and biotinylated EphA2 was captured to a level of 500-1500 RU using a dilution of protein to 0.2 μM in buffer. A dilution series of the peptides was prepared in this buffer with a final DMSO concentration of 0.5% with a top peptide concentration was 50 or 100 nM and 6 further 2-fold dilutions. The SPR analysis was run at 25° C. at a flow rate of 90 μl/min with 60 seconds association and 900-1200 seconds dissociation. Data were corrected for DMSO excluded volume effects. […]

[5] = molecular target: T4, rat EphA3 (Rattus norvegicus, UniProt O08680); assay: Selectivity direct binding assay (FP); conditions: read-out: rat EphA3, Table 7
T4 construct: EphA3 (Ecto); Rat; C-; Sino; 80465-; polyHis (C); purchased Sino Biological 80465-R08H
T4 sequence (O08680 21-541 limits assumed): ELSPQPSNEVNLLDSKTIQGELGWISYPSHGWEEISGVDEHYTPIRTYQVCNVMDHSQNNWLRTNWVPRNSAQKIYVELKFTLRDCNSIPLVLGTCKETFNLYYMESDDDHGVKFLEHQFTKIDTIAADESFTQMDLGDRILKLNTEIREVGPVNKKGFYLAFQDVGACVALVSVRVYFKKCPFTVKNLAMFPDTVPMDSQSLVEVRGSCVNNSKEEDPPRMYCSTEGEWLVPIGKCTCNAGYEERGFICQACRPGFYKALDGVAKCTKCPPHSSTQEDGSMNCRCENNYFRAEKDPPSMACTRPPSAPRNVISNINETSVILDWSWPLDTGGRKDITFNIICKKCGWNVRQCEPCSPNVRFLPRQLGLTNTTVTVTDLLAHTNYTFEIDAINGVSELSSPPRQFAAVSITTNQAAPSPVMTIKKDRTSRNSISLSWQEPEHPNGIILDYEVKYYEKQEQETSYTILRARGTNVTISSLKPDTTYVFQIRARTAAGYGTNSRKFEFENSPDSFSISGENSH
Description: (§1) Peptides with a fluorescent tag (either fluorescein, SIGMA or Alexa Fluor488™, Fisher Scientific) were diluted to 2.5 nM in PBS with 0.01% tween 20 or 50 mM HEPES with 100 mM NaCl and 0.01% tween pH 7.4 (both referred to as assay buffer). This was combined with a titration of protein in the same assay buffer as the peptide to give 1 nM peptide in a total volume of 25 μL in a black walled and bottomed low bind low volume 384 well plates, typically 5 μL assay buffer, 10 μL protein (Table 1) then 10 μL fluorescent peptide. […] . […] . The gain used for analysis was determined for each tracer at the end of the 60 minutes where there was no protein in the well. […] “Lig” was a defined value of the concentration of tracer used.

[6] = molecular target: T5, human EphA4 (Homo sapiens, UniProt P54764); assay: Selectivity direct binding assay (FP); conditions: read-out: human EphA4, Table 7
T5 construct: EphA4 (Ecto); Human; Fc fusion; R&D systems; 6827-A4; Fc fusion (R&D 6827-A4) or C-terminal polyHis (Sino Biological 11314-H08H); purchased R&D systems or Sino Biological 6827-A4 or 11314-H08H
Description: as §1

[7] = molecular target: human CD38 (Homo sapiens, UniProt P28907); assay: Selectivity direct binding assay (FP); conditions: read-out: human CD38, Table 7
Description: as §1

[8] = molecular target: T2, rat EphA2; assay: Selectivity direct binding assay (FP); parameters: EphA2 (ligand); Rat; C-; In-house; N/A; polyHis (C); made in house; conditions: read-out: rat EphA2, Table 7
Description: as §1

[9] = molecular target: T3, Mouse EphA2; assay: Selectivity direct binding assay (FP); parameters: EphA2 (Ecto); Mouse; C-; Sino; 50586-M08H; polyHis (C); purchased Sino Biological 50586-M08H; conditions: read-out: mouse EphA2, Table 7
Description: as §1

[10] = molecular target: T1, Human EphA2; assay: Fluorescence polarisation direct binding assay; conditions: read-out: Human EphA2 (KD, nM ± 95% CI), fluorescently tagged TATA peptides
Description: as §1

Substance | Ki [1] | Kd [6] | further results
(β-Ala)-Sar5-(SEQ ID NO: 11) [BCY6018] | 13.1 nM | – | –
(β-Ala)-Sar10-A(D-Arg)DC(HyP)LVNPLCL(D-3,3-DPA)P(D-Asp)W(HArg)C [BCY6141] | 90.4 nM | – | –
(β-Ala)-Sar10-A(HArg)DC(HyP)LVNPLCLHP(D-Asp)W(HArg)C [Compound 66] | 2.7 nM | – | Ki [2]: 1.9 nM; Ki [3]: 4.5 nM
(β-Ala)-Sar10-ARDCPLVNPLCLHPGWTC [BCY6009] | 12.7 nM | – | Ki [2]: 18 nM; Ki [3]: 26.7 nM
(β-AlaSO3H)-Sar5-(SEQ ID NO: 11) [BCY6153] | 18.2 nM | – | –
A(HArg)DCPLVNPLCLHPGWTC [BCY6017] | 8.3 nM | – | –
ACPLVNPLCLHPGWSCRGQ [Compound 87] | 4.4 nM | – | Kd [4]: 1.02 nM
ACVPDRRCAYMNVCA-Sar6-K(FI) [Compound 2] | – | > 1000 nM | Kd [5]: > 1000 nM; Kd [7]: > 6000 nM; Kd [8]: 210 ± 1.96 nM
ACYVGKECAYMNVCA-Sar6-K(FI) [Compound 7] | – | – | Kd [9]: 216 nM; Kd [8]: 252 ± 6.86 nM
Ac-(SEQ ID NO: 12)-Sar6-(D-K[Ac]) [BCY6059] | 43.2 nM | – | –
Ac-CPLVNPLCLHPGWSC(HArg)GQ-Sar6-(D-K[FI]) [Compound 14] | – | > 3000 nM | –
Ac-CPLVNPLCLHPGWSCRGQ-Sar6-(D-K) [Compound 91] | 6.7 nM | – | –
Ac-CPLVNPLCLHPGWSCRGQ-Sar6-(D-K[FI]) [Compound 13] | – | > 3000 nM | –
Ac-CPLVNPLCLHPGWTCL(D-His)G-Sar6-(D-K[FI]) [Compound 12] | – | > 3000 nM | –
Ac-CPLVNPLCLHPGWTCLHG-Sar6-(D-K[FI]) [Compound 11] | – | > 3000 nM | –
FI-(β-Ala)-Sar10-A(HArg)DCPLVNPLCLHPGWTC [Compound 10] | – | – | Kd [10]: 9.07 ± 2.49 nM
FI-(β-Ala)-Sar10-ARDCPLVNPLCLHPGWTC [Compound 9] | – | > 3000 nM | –
